{
  "source": "patent US20240299353A1",
  "about": "“COMPOSITIONS AND METHODS FOR TREATING […] 5-MEO-DMT” (Alvarius Pharmaceuticals Ltd., priority 2021, published 2024)",
  "type_in_all_cases": "in vivo, Male Wistar rats",
  "key": {"ΔFosB": {"system": "ΔFosB", "experiment": "Western blot of ΔFosB in brain regions, chronic cocaine ± 5-MeO-DMT", "description": "(§1) Male Wistar rats aged 7 weeks were acclimatized to the facility for 1 week prior to the beginning of the study. Animals were administered cocaine hydrochloride (15 mg/kg, Sigma) or saline by i.p. injection once daily for 7 days. For the subsequent 7 days animals receiving cocaine were administered a higher dose 20 mg/kg i.p. to encapsulate the increased drug use seen following prolonged drug use in human addicts (Piazza, P. V. & V. Deroche-Gamonet (2013) A multistep general theory of transition to addiction. Psychopharmacology, 229, 387-413). One-hour post last cocaine animals received a vehicle, low (10 mg/kg) or high (20 mg/kg) dose of 5-MeO-DMT (CarboSynth). Animals were euthanized 23- or 119-hours following vehicle or 5-MeO-DMT administration.\n(§2) Following euthanasia brain regions of interest were isolated. Briefly, the olfactory bulbs were removed before the brain was placed in a rat brain matrix (FIG. 2A). Sterile blades were inserted at positions 2 and 3 (FIG. 2B) to extract a coronal slice containing the Bregma+˜0.2-+˜2.2 coordinates (FIG. 2C). From this tissue slice a blunted 12 G needle was used to punch dissect the NAc and dorsal striatum (DS) (FIG. 2D-2E) identified using the rat brain atlas (Panxinos and Watson 2nd edition). The PFC, hippocampus (Hip) and amygdala (Amyg) were then blunt dissected (FIG. 3A-3D). All regions were frozen in liquid nitrogen and stored at −80° C. until processed.\n(§3) There were 12 treatment groups arising from this study each comprised of 6 animals, they were as follows; saline+vehicle, saline+10 mg/kg 5-MeO-DMT, saline+20 mg/kg 5-MeO-DMT, cocaine+vehicle, cocaine+10 mg/kg 5-MeO-DMT and cocaine+20 mg/kg 5-MeO-DMT for 24- and 120-hours post cocaine/saline. These treatment groups were used for the molecular assessment of addiction-linked markers. Hippocampal protein from the treatment groups saline+vehicle, saline+10 mg/kg 5-MeO-DMT, saline+20 mg/kg 5-MeO-DMT, cocaine+vehicle, cocaine+10 mg/kg 5-MeO-DMT and cocaine+20 mg/kg 5-MeO-DMT collected 24 hours after the last cocaine/saline exposure were further analyzed by mass spectrometry.\n(§4) Determination of protein concentration—a bicinchoninic acid assay (BCA, ThermoFisher) was conducted to determine the total protein concentration in tissue lysates following manufacturer's instructions. Briefly, bovine serum albumin (BSA) standards were prepared in a serial dilution (0-2.0 mg protein/ml) and 200 μl working reagent (50:1, reagent A: reagent B) was added to each of the standards and samples in a 96 well plate (Greiner). For tissue lysates a 1:10 dilution was performed with cell lysis buffer to ensure absorbance values lay within the working range established by the standards. All samples and standards were added in duplicate. The plate was covered and incubated for 30 mins at 37° C. before absorbance was read at 562 nm on a plate reader (SpectraMax M3). The absorbance values were used to form a standard curve of known protein concentrations and protein concentration of samples were derived using the equation of the line. All samples were standardized to the lowest protein concentration using distilled H20 (dH2O).\n(§5) SDS-PAGE and Western Blotting—Following equalisation of protein concentrations, 6× sample loading buffer (15% SDS, 15% […], 50% glycerol, 0.01% bromophenol blue, […]) was added to each sample using a dilution factor of 1:5 of the total volumes before boiling at 100° C. for 5 mins. Samples were stored at −20° C. until use. One dimensional sodium-dodecyl-sulphate polyacrylamide gel electrophoresis (SDS-PAGE) was used for protein separation based on molecular weight. The percentage of acrylamide in the resolving or stacking gel was determined by the molecular weight of the protein of interest. In this instance all gels consisted of a 5% stacking gel and a 10% resolving gel with the exception of mGluR5, G9a (8%) and H3K9Me2 (12%). 20 μg of protein was loaded and resolved using SDS-PAGE. […]"}, "G9a": {"system": "G9a", "experiment": "Western blot of G9a in brain regions, chronic cocaine ± 5-MeO-DMT", "description": "as §1, §2, §3, §4, §5"}, "mGluR5": {"system": "mGluR5", "experiment": "Western blot of mGluR5 in brain regions, chronic cocaine ± 5-MeO-DMT", "settings": "nucleus accumbens, 24 h, two-way ANOVA p=0.0450, does not survive post hoc", "description": "as §1\n(§6) Following euthanasia brain regions of interest were isolated. […]\nas §3, with “These treatment groups were used for the molecular assessment of addiction-linked markers.” left out, “spectrometry. […]” for “spectrometry.”"}, "FosB": {"system": "FosB", "experiment": "Western blot of FosB in brain regions, chronic cocaine ± 5-MeO-DMT", "description": "as §1, §2, §3\nas §4, with “All samples were standardized to the lowest protein concentration using distilled H20 (dH2O).” left out\nSDS-PAGE and Western Blotting—Following equalisation of protein concentrations, 6× sample loading buffer (15% SDS, 15% […], 50% glycerol, 0.01% bromophenol blue, […]) was added to each sample using a dilution factor of 1:5 of the total volumes before boiling at 100° C. for 5 mins. […] The percentage of acrylamide in the resolving or stacking gel was determined by the molecular weight of the protein of interest. […]"}, "pCREB": {"system": "pCREB", "experiment": "Western blot of pCREB in brain regions, chronic cocaine ± 5-MeO-DMT", "settings": "for pCREB levels: cocaine", "description": "as §1, §2, §3\nDetermination of protein concentration—a bicinchoninic acid assay (BCA, ThermoFisher) was conducted to determine the total protein concentration in tissue lysates following manufacturer's instructions. […] For tissue lysates a 1:10 dilution was performed with cell lysis buffer to ensure absorbance values lay within the working range established by the standards. […] The plate was covered and incubated for 30 mins at 37° C. before absorbance was read at 562 nm on a plate reader (SpectraMax M3). The absorbance values were used to form a standard curve of known protein concentrations and protein concentration of samples were derived using the equation of the line. […]"}, "BDNF": {"system": "BDNF", "experiment": "Western blot of BDNF in brain regions, chronic cocaine ± 5-MeO-DMT", "settings": "hippocampus", "description": "as §1, §6\nas §3, with “These treatment groups were used for the molecular assessment of addiction-linked markers.” left out, “spectrometry. […]” for “spectrometry.”"}, "[1]": {"settings": "nucleus accumbens, 24 h, cocaine+vehicle (14 daily i.p. injections)"}, "[2]": {"settings": "nucleus accumbens, 120 h, cocaine+vehicle"}},
  "data": [
    {"smiles": "COC(=O)[C@H]1[C@@H](OC(=O)c2ccccc2)C[C@@H]2CC[C@H]1N2C.Cl", "note": "[cocaine, cocaine hydrochloride, reference compound]", "values": [
      {"measurement": "ΔFosB expression", "setting": "ΔFosB; PFC, 24 h, cocaine alone or 5-MeO-DMT alone", "value": "Neither treatment changes expression alone"},
      {"measurement": "ΔFosB expression", "setting": "ΔFosB; PFC, 120 h, cocaine, two-way ANOVA p=0.0144, no post hoc differences", "value": "significant cocaine effect"},
      {"measurement": "ΔFosB expression", "setting": "ΔFosB; amygdala, 24 h, cocaine+vehicle", "value": "increase in expression"},
      {"measurement": "ΔFosB expression", "setting": "ΔFosB; amygdala, 120 h, cocaine", "value": "no cocaine-induced increase"},
      {"measurement": "ΔFosB expression", "setting": "ΔFosB; dorsal striatum, 24 h, cocaine+vehicle relative to control", "value": "significant increase in ΔFosB expression"},
      {"measurement": "ΔFosB expression", "setting": "ΔFosB; [1]", "value": "increases the expression"},
      {"measurement": "ΔFosB expression", "setting": "ΔFosB; [2]", "value": "basal expression levels were re-established"},
      {"measurement": "G9a expression", "setting": "G9a; PFC, 24 h, cocaine+vehicle relative to saline+vehicle", "value": "significant decrease in G9a expression"},
      {"measurement": "G9a expression", "setting": "G9a; PFC, 120 h, cocaine, two-way ANOVA p=0.0187, no post hoc differences", "value": "significantly affects expression levels"},
      {"measurement": "G9a expression", "setting": "G9a; dorsal striatum, 24 h, cocaine", "value": "increased the expression"},
      {"measurement": "G9a expression", "setting": "G9a; dorsal striatum, 120 h, cocaine", "value": "no change present"},
      {"measurement": "G9a expression", "setting": "G9a; hippocampus, 24 h, cocaine", "value": "reduced"},
      {"measurement": "G9a expression", "setting": "G9a; hippocampus, 120 h, cocaine", "value": "no change present"},
      {"measurement": "mGluR5 expression", "setting": "mGluR5", "value": "significant cocaine effect"},
      {"measurement": "FosB expression", "setting": "FosB; PFC, 24 h and 120 h, any of the treatments", "value": "unchanged by any of the treatments"},
      {"measurement": "FosB expression", "setting": "FosB; amygdala, 24 h, any treatment", "value": "no change in FosB levels"},
      {"measurement": "FosB expression", "setting": "FosB; dorsal striatum, 24 h, repeated cocaine, two-way ANOVA, no post hoc differences", "value": "significant effect"},
      {"measurement": "FosB expression", "setting": "FosB; [1]", "value": "increases the expression"},
      {"measurement": "FosB expression", "setting": "FosB; [2]", "value": "basal expression levels were re-established"},
      {"measurement": "pCREB levels", "setting": "pCREB; PFC, 24 h, p=0.0048", "value": "significant effect"},
      {"measurement": "proportion of pCREB relative to total CREB", "setting": "pCREB; PFC, 24 h and 120 h, all treatments", "value": "no change"},
      {"measurement": "pCREB levels", "setting": "pCREB; PFC, 120 h, p=0.0259", "value": "significant effect"},
      {"measurement": "proportion of pCREB", "setting": "pCREB; amygdala, 24 h and 120 h, any of the treatments", "value": "unchanged by any of the treatments"},
      {"measurement": "BDNF expression", "setting": "BDNF; 24 h, any of the treatment groups", "value": "no change in BDNF expression"},
      {"measurement": "BDNF levels", "setting": "BDNF; 120 h, cocaine+vehicle", "value": "significant decrease in BDNF levels"}
    ]}
  ]
}
